Measured values taken from paper PMC9566605 (Cancer cell, 2022).

System: H-2K^b associated peptides of EG.7 cells
Format: cell-based, mouse
Conditions: 2.5 mM PNT on ice 5 min; 30 minutes post-treatment

`O=NOO` [PNT, peroxynitrite] was tested, and the “peptides with greater than 2-fold decrease in yield relative to untreated cells” value was “about 20%”.
